The target in test [1] is T1, human AR (Homo sapiens, UniProt P10275). Put plainly: Co-transfection assay, AR antagonist activity (CV-1 cells, in presence of DHT).
For test [2], the target named is T1, human AR. Put plainly: Co-transfection assay, AR agonist activity (CV-1 cells, MTV-LUC reporter).
The target in test [3] is T1, human AR. Put plainly: AR whole cell competitive binding assay (COS-1 cells, 3H-DHT).

Amino acid sequences for entries named in this document (tags omitted). A change or cut given only in a name is not applied to a line headed by its entry.
UniProt P10275: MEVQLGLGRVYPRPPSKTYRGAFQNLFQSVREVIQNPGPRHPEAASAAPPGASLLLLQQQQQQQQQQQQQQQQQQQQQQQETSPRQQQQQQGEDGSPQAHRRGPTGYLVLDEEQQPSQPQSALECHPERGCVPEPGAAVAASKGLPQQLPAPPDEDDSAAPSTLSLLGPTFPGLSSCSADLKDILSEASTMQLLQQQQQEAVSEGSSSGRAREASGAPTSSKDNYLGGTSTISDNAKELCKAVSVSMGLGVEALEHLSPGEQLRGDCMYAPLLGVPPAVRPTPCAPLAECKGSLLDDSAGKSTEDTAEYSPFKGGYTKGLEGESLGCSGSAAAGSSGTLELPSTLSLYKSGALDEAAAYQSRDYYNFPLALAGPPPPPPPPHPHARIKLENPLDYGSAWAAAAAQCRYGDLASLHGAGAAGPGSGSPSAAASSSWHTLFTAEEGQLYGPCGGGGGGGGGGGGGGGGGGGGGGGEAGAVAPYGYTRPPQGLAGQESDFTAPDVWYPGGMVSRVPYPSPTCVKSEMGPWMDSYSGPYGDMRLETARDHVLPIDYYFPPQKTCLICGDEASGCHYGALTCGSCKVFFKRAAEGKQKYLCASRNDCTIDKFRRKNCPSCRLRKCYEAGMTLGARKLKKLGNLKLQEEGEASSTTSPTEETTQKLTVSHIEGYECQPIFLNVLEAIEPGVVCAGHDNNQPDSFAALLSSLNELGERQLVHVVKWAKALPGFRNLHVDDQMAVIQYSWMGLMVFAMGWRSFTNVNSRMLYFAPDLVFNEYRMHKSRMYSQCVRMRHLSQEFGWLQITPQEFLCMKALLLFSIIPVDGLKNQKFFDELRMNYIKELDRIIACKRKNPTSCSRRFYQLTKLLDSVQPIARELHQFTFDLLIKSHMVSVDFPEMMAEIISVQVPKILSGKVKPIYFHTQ

Like-named read-outs stand apart in the source and are kept apart here. Bounds are passed on as bounds.

As for `CCCNc1ccc2[nH]c(=O)cc(C(F)(F)F)c2c1` [Compound 204, 6-Propylamino-4-trifluoromethyl-2(1H)-quinolinone], the IC50 (in general, the concentration that inhibits the measured activity by half) in test [1] was 27 nM.

For `CCCCN(CCCC)c1ccc2[nH]c(=O)cc(C(F)(F)F)c2c1` [Compound 220, 6-Dibutylamino-4-trifluoromethyl-2(1H)-quinolinone], in test [1], the IC50 was found to be 29 nM. In test [2] (read-out: AR Agonist CV-1 Cells Potency), the EC50 is 1280 nM.

With `CCN(c1ccc2[nH]c(=O)cc(C(F)(F)F)c2c1)C(C)C` [Compound 239, 6-(N-Ethyl-N-isopropyl)amino-4-trifluoromethyl-2(1H)-quinolinone], the IC50 in test [1] is greater than 10000 nM. The same compound showed an EC50 in test [2] of 2 nM.

For the compound `Cc1cc(=O)[nH]c2ccc(N(CC(F)(F)F)CC(F)(F)F)cc12` [Compound 377, 6-(bis-2,2,2-Trifluoroethyl)amino-4-methyl-2(1H)-quinolinone], in test [1], the IC50 is greater than 10000 nM. In addition, the EC50 in test [2] was found to be 0.45 nM.

For `Cc1cc(=O)[nH]c2ccc(N(CC(C)C)CC(F)(F)F)cc12` [Compound 381, 6-(N-Isobutyl-N-2,2,2-trifluoroethyl)amino-4-methyl-2(1H)-quinolinone], the Ki (in general, the dissociation constant of the complex between target and ligand, obtained from inhibition or displacement) in test [3] is 7.8 nM. For the same compound, in test [1], the concentration for half-maximal inhibition (IC50) was greater than 10000 nM. Moreover, in test [2], the EC50 came to 1.8 nM.

On to `CCCNc1ccc2c(C(F)(F)F)cc(=O)[nH]c2c1` [Compound 513, 7-Propylamino-4-trifluoromethyl-2(1H)-quinolinone], for which the 50% inhibitory concentration (IC50) in test [1] turned out to be 26 nM. Moreover, in test [2], the EC50 was greater than 10000 nM.

On to `CC(C)Nc1ccc2c(C(F)(F)F)cc(=O)[nH]c2c1` [Compound 514, 7-Isopropylamino-4-trifluoromethyl-2(1H)-quinolinone], for which the concentration for half-maximal inhibition (IC50) in test [1] amounted to 55 nM. Moreover, in test [2], the EC50 was greater than 10000 nM.

As for `O=c1cc(C(F)(F)F)c2ccc(NCC(F)(F)C(F)(F)F)cc2[nH]1` [Compound 520, 7-(2,2,3,3,3-Pentafluoropropyl)amino-4-trifluoromethyl-2(1H)-quinolinone], the EC50 in test [2] is greater than 10000 nM.

In test [3], `O=c1cc(C(F)(F)F)c2ccc(NCC(F)(F)F)cc2[nH]1` [Compound 523, 7-(N-2,2,2-Trifluoroethyl)amino-4-trifluoromethyl-2(1H)-quinolinone] came in with a Ki of 16 nM. In test [1], the 50% inhibitory concentration (IC50) stood at 24 nM. In test [2], this compound registered an EC50 of 1000 nM.

The compound `C=CC(C)(C)Nc1ccc2c(C(F)(F)F)cc(=O)[nH]c2c1` [Compound 559, 7-(1,1-Dimethylallyl)amino-4-trifluoromethyl-2(1H)-quinolinone] had an EC50 in test [2] greater than 10000 nM.

For `CCC(C)c1cc2c(C(F)(F)F)cc(=O)[nH]c2cc1N` (stereo not drawn) [Compound 581, 7-Amino-6-sec-butyl-4-trifluoromethyl-2(1H)-quinolinone], the Ki in test [3] was determined as 24 nM. The IC50 in test [1] was 5000 nM.

The values are drawn from patent US7696246B2 (Ligand Pharmaceuticals Incorporated, priority 1999, dated 2010).
